# Reference: article PMC9748978 (RSC Advances, 2022)
# Key:
# Solubility in water = format: physicochemical; conditions: 25 °C, 24 h
# [1] = Accumulation in the skin after 24 h penetration; format: in vitro ADME, pig; conditions: after 24 h of penetration from solution, porcine skin
# Summary of the method: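 Franz diffusion cells with porcine abdominal skin, PBS (pH 7.4) acceptor at 37.0 ± 0.5 °C. After 24 h penetration the skin was removed, rinsed in PBS pH 7.4, dried at room temperature, weighed, cut to the 1 cm2 diffusion area and minced. It was then extracted in methanol for 24 h at 4 °C, homogenized 3 min and centrifuged at 3500 rpm for 5 min. Supernatant was assayed by HPLC, expressed as μg IBU per g skin.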
substance,measurement,setting,value
L-histidine propyl ester bis(ibuprofenate) [[HisOPr][IBU]],Solubility in water,Solubility in water,9.801 ± 0.067 g dm^−3
same,Solubility in water (as ibuprofen),Solubility in water,4.775 ± 0.046 g IBU per dm^3
same,accumulation in the skin,[1],461.56 ± 29.77 μg IBU per g skin
